Tests used:
Assay in all cases: apparent dissociation constant pKd app (kinobead competition) (-log10(M)); higher = stronger binding
BMPR1A = BMPR1A (UniProt P36894)
PIM1 = PIM1 (UniProt P11309)
TEK = TEK (UniProt Q02763)
FLT4 = FLT4 (UniProt P35916)
TP53RK = target: T1, TP53RK (UniProt Q96S44)
T1 sequence (whole entry): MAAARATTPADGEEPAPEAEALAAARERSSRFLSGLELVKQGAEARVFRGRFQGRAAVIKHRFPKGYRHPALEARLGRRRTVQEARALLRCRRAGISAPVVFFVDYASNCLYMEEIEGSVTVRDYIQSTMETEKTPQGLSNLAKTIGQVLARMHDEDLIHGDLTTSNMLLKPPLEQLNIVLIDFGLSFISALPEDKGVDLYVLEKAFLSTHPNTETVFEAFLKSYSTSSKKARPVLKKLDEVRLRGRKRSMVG

ERN1 = ERN1 (UniProt O75460)
SGK3 = target: T2, SGK3 (UniProt Q96BR1)
T2 sequence (whole entry): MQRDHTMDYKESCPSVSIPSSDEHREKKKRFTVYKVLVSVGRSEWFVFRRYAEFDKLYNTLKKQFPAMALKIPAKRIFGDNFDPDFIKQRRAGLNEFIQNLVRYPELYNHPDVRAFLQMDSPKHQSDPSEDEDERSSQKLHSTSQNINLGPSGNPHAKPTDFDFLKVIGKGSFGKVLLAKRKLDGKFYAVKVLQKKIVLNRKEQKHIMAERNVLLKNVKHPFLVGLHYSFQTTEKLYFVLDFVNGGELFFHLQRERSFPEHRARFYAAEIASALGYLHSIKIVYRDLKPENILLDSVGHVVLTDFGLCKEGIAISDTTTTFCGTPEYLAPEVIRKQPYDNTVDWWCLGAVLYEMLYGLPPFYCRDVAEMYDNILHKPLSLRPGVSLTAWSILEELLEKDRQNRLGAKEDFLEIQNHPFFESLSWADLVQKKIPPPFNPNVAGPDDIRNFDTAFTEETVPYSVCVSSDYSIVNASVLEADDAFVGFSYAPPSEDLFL

ULK1 = target: T3, ULK1 (UniProt O75385)
T3 sequence (whole entry): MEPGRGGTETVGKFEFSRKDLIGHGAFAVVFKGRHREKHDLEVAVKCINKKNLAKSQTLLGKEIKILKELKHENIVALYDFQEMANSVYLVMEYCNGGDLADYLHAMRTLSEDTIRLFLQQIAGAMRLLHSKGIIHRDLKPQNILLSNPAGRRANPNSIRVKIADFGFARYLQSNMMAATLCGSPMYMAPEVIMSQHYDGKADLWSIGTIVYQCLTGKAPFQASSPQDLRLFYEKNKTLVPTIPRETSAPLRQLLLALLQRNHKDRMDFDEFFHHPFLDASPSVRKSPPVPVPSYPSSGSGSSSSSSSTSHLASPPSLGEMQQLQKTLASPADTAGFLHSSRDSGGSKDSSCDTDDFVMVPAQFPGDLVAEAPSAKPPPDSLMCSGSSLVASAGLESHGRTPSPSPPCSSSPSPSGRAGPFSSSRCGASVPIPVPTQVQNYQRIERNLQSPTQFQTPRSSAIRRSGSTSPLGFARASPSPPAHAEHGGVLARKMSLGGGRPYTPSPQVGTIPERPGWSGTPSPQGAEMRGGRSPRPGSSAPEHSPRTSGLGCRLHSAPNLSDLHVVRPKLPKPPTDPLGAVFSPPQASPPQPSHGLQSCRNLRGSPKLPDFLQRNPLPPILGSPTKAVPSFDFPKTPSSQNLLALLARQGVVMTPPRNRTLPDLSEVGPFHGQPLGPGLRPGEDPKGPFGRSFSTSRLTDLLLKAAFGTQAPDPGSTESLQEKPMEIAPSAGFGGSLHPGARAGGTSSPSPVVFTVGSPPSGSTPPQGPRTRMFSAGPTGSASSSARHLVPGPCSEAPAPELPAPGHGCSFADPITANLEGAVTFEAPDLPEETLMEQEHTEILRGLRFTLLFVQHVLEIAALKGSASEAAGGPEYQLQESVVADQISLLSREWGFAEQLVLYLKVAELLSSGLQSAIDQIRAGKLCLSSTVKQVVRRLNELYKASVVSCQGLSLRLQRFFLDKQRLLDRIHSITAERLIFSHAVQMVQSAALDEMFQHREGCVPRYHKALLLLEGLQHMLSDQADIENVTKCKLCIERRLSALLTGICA

CDC42BPA = CDC42BPA (UniProt Q5VT25)
EPHA4 = EPHA4 (UniProt P54764)
CAMK2G = CAMK2G (UniProt Q13555)
PIP4K2B = target: T4, PIP4K2B (UniProt P78356)
T4 sequence (whole entry): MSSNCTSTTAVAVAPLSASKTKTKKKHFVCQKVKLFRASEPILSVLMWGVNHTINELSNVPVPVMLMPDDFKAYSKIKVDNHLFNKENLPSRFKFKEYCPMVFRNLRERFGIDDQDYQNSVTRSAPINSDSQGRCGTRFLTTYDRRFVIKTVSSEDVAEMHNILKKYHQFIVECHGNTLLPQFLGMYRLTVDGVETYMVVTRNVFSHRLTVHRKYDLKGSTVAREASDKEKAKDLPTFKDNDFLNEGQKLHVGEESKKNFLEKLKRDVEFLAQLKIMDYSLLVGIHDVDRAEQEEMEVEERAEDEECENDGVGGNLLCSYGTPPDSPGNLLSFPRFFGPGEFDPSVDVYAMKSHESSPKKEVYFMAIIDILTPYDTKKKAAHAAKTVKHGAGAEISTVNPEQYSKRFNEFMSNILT

SMILES | apparent dissociation constant pKd app (-log10) (BMPR1A) | apparent dissociation constant pKd app (-log10) (PIM1) | apparent dissociation constant pKd app (-log10) (TEK) | apparent dissociation constant pKd app (-log10) (FLT4) | apparent dissociation constant pKd app (-log10) (TP53RK) | apparent dissociation constant pKd app (-log10) (ERN1) | apparent dissociation constant pKd app (-log10) (SGK3) | apparent dissociation constant pKd app (-log10) (ULK1) | apparent dissociation constant pKd app (-log10) (CDC42BPA) | apparent dissociation constant pKd app (-log10) (EPHA4) | apparent dissociation constant pKd app (-log10) (CAMK2G) | apparent dissociation constant pKd app (-log10) (PIP4K2B)
NC(=O)c1cccc2cn(-c3ccc([C@@H]4CCCNC4)cc3)nc12 [Niraparib] | < 4.8 | < 4.7 | < 4.6 | < 4.7 | < 4.5 | < 4.5 | < 4.5 | < 4.6 | < 4.5 | < 4.6 | < 4.9 | < 4.5
O=C(c1cc(Cc2n[nH]c(=O)c3ccccc23)ccc1F)N1CCN(C(=O)C2CC2)CC1 [Olaparib] | < 4.8 | < 4.7 | < 4.6 | < 4.7 | < 4.5 | < 4.5 | < 4.5 | < 4.6 | < 4.5 | < 4.6 | < 4.9 | < 4.5
Cn1ncnc1[C@H]1c2n[nH]c(=O)c3cc(F)cc(c23)N[C@@H]1c1ccc(F)cc1 [Talazoparib] | < 4.8 | < 4.7 | < 4.6 | < 4.7 | < 4.5 | < 4.5 | < 4.5 | < 4.6 | < 4.5 | < 4.6 | < 4.9 | < 4.5

Source: the supplement of paper PMC11403291
